{
  "sequences": {"note": "The chains behind the UniProt entries cited, without tags or fusion partners. Where a name states a change or a piece, a line headed by the entry shows the natural chain unless it says otherwise.", "UniProt Q01726": "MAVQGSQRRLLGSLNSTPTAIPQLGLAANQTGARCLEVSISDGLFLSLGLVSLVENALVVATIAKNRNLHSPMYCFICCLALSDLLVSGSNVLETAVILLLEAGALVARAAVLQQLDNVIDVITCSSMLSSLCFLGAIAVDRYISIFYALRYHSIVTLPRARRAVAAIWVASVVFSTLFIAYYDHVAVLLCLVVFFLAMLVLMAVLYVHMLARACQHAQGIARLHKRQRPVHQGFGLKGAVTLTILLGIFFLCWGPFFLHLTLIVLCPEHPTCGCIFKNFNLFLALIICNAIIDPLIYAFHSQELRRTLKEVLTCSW"},
  "source": "patent US11286288B2",
  "about": "“Pharmaceutical compound” (VALLAURIX PTE. LTD., priority 2015, dated 2022)",
  "molecular_target": "T1, MC1R (Homo sapiens, UniProt Q01726)",
  "T1 construct": "human melanocyte cultures, coded 1750 and 1753, that were derived from 2 different donors expressing functional MC1R; endogenous in cells; host or cells: primary human melanocyte cultures 1750 and 1753 (two donors)",
  "experiment": "cAMP radioimmunoassay in human melanocyte culture 1753",
  "format": "cell-based",
  "conditions": "Test 3, melanocytes 1753, at 10^-7 M, 1 hour treatment, p<0.05",
  "method": "Compounds 1, 2, 3 and 4 were tested in various separate tests and using 2 different human melanocyte cultures, coded 1750 and 1753, that were derived from 2 different donors expressing functional MC1R. The melanocytes were plated at a density of 0.3*10^6 cells/well. After 48 hours, the melanocytes were treated with the different compound concentrations for 1 hour. Controls without compound were included in all experiments. In some experiments reference compound NDP-MSH was included. The reaction was stopped by addition of 50 μl N HCl and the supernatant in each well was used to measure cAMP using a radioimmunoassay as described by Suzuki 1996 (Suzuki I, Cone R D, Im S, Nordlund ii, Abdel-Malek Z: “Binding of melanotropic hormones to the MC1 receptor on human melanocytes stimulates proliferation and melanogenesis”. Endocrinology 137: 1627-1633, 1996). Duplicate samples from each well were assayed with triplicate wells included in each compound group. The results from different tests cannot be compared due to differences in melanocyte cultures and to different passage number. The mean of 6 cAMP measurements per group was expressed as % of the control group. Statistical analysis was carried out using ANOVA followed by Newman Kuels test. In some cases, unpaired t-test was used.",
  "data": [
    {"substance": "NDP-MSH [reference compound]", "values": [
      {"measurement": "cAMP, highest efficacy, % of the control group", "value": 202, "unit": "%"}
    ]}
  ]
}
